The list is not random: actives were taken first. Their share in the collection is about 2.2%.
PDI inh: inhibitors of human PDI, primary screen, biochemical, turbidity, single point, plate reader. inhibition, % at 10 µM. AID 588391, 2011. hit rate 0.052% among 350,000. PDI insulin aggregation turbidity, A650, 90 min;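 active = mean inhibition across replicates of 30% or more, whatever share of single replicates reach that level; inconclusive = mean inhibition below 30% while every single replicate reaches 30%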
S100A4 MyoIIA: inhibitors of S100A4-myosin IIA peptide binding, primary screen, biochemical, fluorescence polarization, TAMRA-MyoIIA peptide; inhibition, % at 10.7 µM; hit rate 0.14% among 360,000;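 active = mean inhibition of at least 70% across replicates, with every replicate also reaching that level; inconclusive = mean inhibition reaches 70% but some replicates fall short; inactive = mean inhibition below 70%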
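Material: S100A4 monomer protein | Medium: HEPES pH 7.2 with CaCl2, KCl, NaCl, DTT, Triton | Reagent: Labelled myosin peptide probe, 5 nM | Doses: One dose per compound | Times: 5 min incubation before reading | Benchmarks: Neutral control DMSO, positive control TFP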
SIRT5 block: SIRT5 desuccinylase inhibitors, primary screen, biochemical, fluorescence imaging, single point, set 5 | NAD-dependent protein deacylase sirtuin-5, mitochondrial (Homo sapiens), Q9NXA8 | Purified SirT5, succinyl-peptide AMC, trypsin-coupled fluorescence | inhibition, % at 15 µM | hit rate 1.1% among 330,000 | AID 652115, 2013; in the data active = inhibition above about 15%; inconclusive = no clear call, values can overlap the other calls
ERp5 block: inhibitors of ERp5-driven insulin aggregation, primary screen, biochemical, turbidity, absorbance 650 nm, single point | Protein disulfide-isomerase A6 (Homo sapiens), Q15084 | 90 min | inhibition, % at 9.99 µM | hit rate 0.05% among 350,000;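 active = mean replicate inhibition above about 25%, with every replicate also reaching it, limit read from the data, passing the limit was not always enough; inconclusive = only one of those two criteria met; inactive = neither criterion met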
Yeast UUG start: yeast start codon fidelity modulation | S. cerevisiae UUG-firefly luciferase reporter, luminescence/redox ratio | activity score, % at 18.7 µM | 350,000 tested, 0.13% active;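 active = replicate mean at a twofold rise or more, about +100% in these data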;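 also: firefly luciferase made from a UUG start codon reports start codon fidelity; reporter light over untreated wells divided by growth signal over untreated wells; some hits fall short of that in this replicate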
FGF22 binding: binders of human FGF22 protein, primary screen, FGF22 synaptogenesis inhibitor project, biophysical, thermal shift, single point | Fibroblast growth factor 22 (Homo sapiens), Q9HCT0 | recombinant FGF22 thermal shift, SYPRO orange fluorescence; percent of sucrose octasulfate shift, DMSO zero | activity (Tm shift, normalised), % at 9.99 µM | hit rate 1.5% among 340,000 | AID 651658, 2012;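 active = mean Tm shift, scaled 0 neutral to 100 positive control, at about 1.3% or above, every replicate too, limit read from the data; inconclusive = no clear call, values can overlap the other calls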
Active calls of the source: *; ? = inconclusive; nt = not tested or not shown.

Screens by letter – A = PDI inh; B = S100A4 MyoIIA; C = SIRT5 block; D = ERp5 block; E = Yeast UUG start; F = FGF22 binding
structure: CC(C)NC(=O)Nc1ccc2c(c1)C(=O)N([C@H](C)CO)C[C@@H](C)[C@H](CN(C)Cc1ccc(C(=O)O)cc1)OCCCC[C@H](C)O2
  A = nt | B = 5 | C = 0 | D = -2 | E = -8 | F = 0

structure: C[C@@H]1CCCCO[C@H](CN(C)Cc2ccc(C(F)(F)F)cc2)[C@H](C)CN([C@H](C)CO)C(=O)c2cc(NC(=O)c3ccncc3)ccc2O1
  A = nt | B = -31 | C = 20* | D = 3 | E = -2 | F = 1

structure: CC(C)NC(=O)Nc1ccc2c(c1)C(=O)N([C@@H](C)CO)C[C@@H](C)[C@H](CN(C)Cc1ccc(C(F)(F)F)cc1)OCCCC[C@@H](C)O2
  A = nt | B = 3 | C = 17* | D = 1 | E = 36 | F = 0

structure: O=C(c1ccccc1F)N(Cc1cccnc1)Cc1cc2cc3c(cc2[nH]c1=O)OCCO3
  A = 9 | B = 7 | C = -1 | D = -2 | E = -14 | F = 43*

structure: CC1CC(C)CN(CCOCCSc2ccccc2)C1 (stereo unspecified)
  A = 3 | B = ? | C = -4 | D = 1 | E = nt | F = 0

structure: CC1CCCN(CCOCCSc2ccccc2)C1 (stereo unspecified)
  A = 6 | B = -6 | C = 21* | D = 3 | E = nt | F = 0

structure: CC(C)(C)N1NC2(CCCCC2)NC1=S
  A = 17 | B = -7 | C = 0 | D = 1 | E = -26 | F = 43*

structure: S=C1NC2(CCCCC2)NN1c1ccccc1
  A = 5 | B = 5 | C = -1 | D = -8 | E = -8 | F = 0

structure: CCC(=O)N1[C@H](CO)[C@@H](c2ccccc2)C12CN(Cc1nccs1)C2
  A = nt | B = 2 | C = -5 | D = -1 | E = nt | F = 0

structure: CCCc1c(C(=O)OCC)[nH]c2c1C(=O)CCC2
  A = nt | B = 11 | C = 29* | D = -2 | E = -6 | F = 0

The closing two records of the part before lead into the next.
Screens by letter – A = PDI inh; B = S100A4 MyoIIA; C = SIRT5 block; D = ERp5 block; E = Yeast UUG start; F = FGF22 binding
structure: CCC(=O)N1[C@H](CO)[C@@H](c2ccccc2)C12CN(Cc1nccs1)C2
  A = nt | B = 2 | C = -5 | D = -1 | E = nt | F = 0

structure: CCCc1c(C(=O)OCC)[nH]c2c1C(=O)CCC2
  A = nt | B = 11 | C = 29* | D = -2 | E = -6 | F = 0

structure: Cc1noc(C)c1S(=O)(=O)N(C)C[C@H]1Oc2ccc(NC(=O)Cc3ccccc3)cc2CC(=O)N([C@H](C)CO)C[C@@H]1C
  A = nt | B = nt | C = nt | D = nt | E = 10 | F = 0

structure: Cc1[nH]c2ccc(C(=O)O)cc2c1C
  A = 1 | B = nt | C = nt | D = nt | E = -16 | F = nt

structure: CCCc1c(C)[nH]c2ccc(C(=O)O)cc2c1=S
  A = 5 | B = -5 | C = 26* | D = 4 | E = -15 | F = 0

structure: O=C(O)C1C(c2ccccc2)c2ccccc2C(O)C1CO (stereo unspecified)
  A = 6 | B = 0 | C = nt | D = 17 | E = -14 | F = 43*

structure: OCC1C2c3ccccc3C(c3ccccc32)C1CO (stereo unspecified)
  A = -3 | B = -2 | C = -5 | D = 7 | E = nt | F = 0

structure: N=c1c2c(n(Cc3ccc(Br)cc3)c3c1CCC3)CCCC2
  A = -6 | B = -3 | C = -4 | D = -1 | E = nt | F = 43*

structure: CCC(CC)NC(=O)Nc1ccccc1C(F)(F)F
  A = 1 | B = 5 | C = 1 | D = 2 | E = -12 | F = 0

structure: CCC(CO)NC(=O)c1ccccc1C(F)(F)F (stereo unspecified)
  A = 2 | B = 26 | C = 23* | D = -2 | E = nt | F = 0

structure: C[C@@H]1CN([C@@H](C)CO)C(=O)c2cc(NC(=O)Nc3ccc(F)cc3)ccc2O[C@@H](C)CCCCO[C@H]1CN(C)S(=O)(=O)c1cn(C)cn1
  A = nt | B = 14 | C = 7 | D = 0 | E = 12 | F = nt

structure: O=C(Nc1ccccc1F)C(=Cc1sc(N2CCOCC2)nc1-c1ccccc1)C(=O)Nc1ccccc1F
  A = 5 | B = 19 | C = -1 | D = -7 | E = nt | F = 44*

structure: O=C(N/N=C/c1sc(N2CCOCC2)nc1-c1ccccc1)c1ccccc1O
  A = 9 | B = nt | C = nt | D = nt | E = -20 | F = nt

structure: Cc1cccc(-c2ccc([C@H]3[C@H]4CN(S(=O)(=O)c5cccc(C)c5)CCCCN4[C@H]3CO)cc2)c1
  A = nt | B = -3 | C = 13 | D = -2 | E = -12 | F = 18*

structure: Cc1cccc(S(=O)(=O)N2CCCCN3[C@@H](CO)[C@H](c4ccc(-c5ccccc5)cc4)[C@@H]3C2)c1
  A = nt | B = 8 | C = 22* | D = -4 | E = -10 | F = 0

structure: Cc1cccc(S(=O)(=O)N2CCCCN3[C@H](CO)[C@H](c4ccc(-c5ccccc5)cc4)[C@@H]3C2)c1
  A = nt | B = 7 | C = -1 | D = -7 | E = 1 | F = -1

structure: Cc1cccc(-c2ccc([C@@H]3[C@@H](CO)N4C(=O)CN(S(=O)(=O)c5cccc(F)c5)C[C@@H]34)cc2)c1
  A = nt | B = 9 | C = 20* | D = 1 | E = nt | F = 0

Compound activity (PubChem BioAssay)
